Assay: Gefitinib dissolved in spray solution SPRAYSOL of Example 6
Conditions: 88.7/10.4/0.9 (w/w) methanol/water/formic acid (3.9 eq), 20° C.

## COc1cc2ncnc(Nc3ccc(F)c(Cl)c3)c2cc1OCCCN1CCOCC1 [gefitinib]
Based on volume of solvent
  calculated concentration of gefitinib, completely dissolved: 19.5 mg/mL
Based on weight of solvent
  calculated concentration of gefitinib, completely dissolved: 23.7 mg/g
